Apparent affinities of Ab-95 variants for a coronavirus HR2 peptide

Source: Engelhart et al. 2022 (doi:10.1038/s41597-022-01779-4), MIT Lincoln Laboratory and A-Alpha Bio; data file from the FLAb repository.

The target is the same throughout: PDVDLGDISGINAS, from the HR2 region of SARS-CoV-2 spike.

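Phage display of a naive human antibody library on the peptide gave the parent. In library AAYL52, one, two or three CDR residues were substituted; doubles and triples were drawn at random. Affinity was read by AlphaSeq, a pooled yeast mating assay with surface-displayed partners. After mating in shaken culture at 30 °C for 16 h, diploids were selected and their barcode pairs sequenced. The ratio of observed to expected reads was calibrated, replicate by replicate, on BCL2-family standards whose Kd was known from biolayer interferometry. The assay was run in three technical replicates.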

Parent scFv Ab-95: VH joined to VL by a (GGGGS)3 linker. Changes lie in the light chain CDRs alone.
VH: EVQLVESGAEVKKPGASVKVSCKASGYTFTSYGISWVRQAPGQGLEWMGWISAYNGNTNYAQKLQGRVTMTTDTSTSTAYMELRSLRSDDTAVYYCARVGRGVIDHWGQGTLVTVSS
VL: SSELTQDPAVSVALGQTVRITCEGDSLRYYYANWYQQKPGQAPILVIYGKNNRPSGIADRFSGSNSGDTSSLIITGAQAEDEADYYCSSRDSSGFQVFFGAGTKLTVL

Positions count from residue 1 of the parent VL; K50P puts P in place of K. Numbers give log10(Kd / nM), so 0 is 1 nM and 3 is 1 µM. Smaller is tighter. Where no diploid with the target was found in that replicate, the entry reads "ND": below detection, most likely a poor binder, though not proof of it.

changes,"log10 Kd, replicates",control signals
K50P/Q96Y,2.55 / 2.43 / 2.15,4/9 (3.75)
S55I/D91G/V97S,4.41 / 4.51 / ND,2/9 (5.04)
S88E/F98A,3.48 / ND / 4.83,3/9 (4.26)
Y31N/A32S/G49S,3.53 / 3.13 / 3.00,2/9 (4.13)
Y30V/K50F,2.90 / 3.61 / 2.83,4/9 (3.96)
L27I/N33W/Q96D,ND / ND / ND,2/9 (3.78)
N33Q/G49Y/F95T,3.54 / 4.85 / 3.86,4/9 (3.69)
L27F/S89K/V97M,3.15 / 5.12 / ND,1/9 (2.43)
P54T/F95I/V97D,ND / ND / ND,0/9
S89H/D91W/V97S,1.69 / 2.39 / 1.63,4/9 (3.59)
S88Y/F95S/V97L,ND / 3.93 / ND,2/9 (3.04)
S55G/Q96S/V97L,3.31 / 2.65 / 3.55,4/9 (3.76)
N52G/P54E/D91Q,5.34 / 2.83 / 3.46,3/9 (3.50)
Y30I/K50C/S92I,ND / ND / ND,1/9 (4.56)
L27K/Y30Q/R53I,3.19 / 3.60 / 3.31,2/9 (4.27)
Y31P/R53H/R90I,3.88 / 3.58 / ND,6/9 (3.91)
Y29K/R90P/D91M,3.85 / 3.70 / 3.24,2/9 (4.18)
Y29S/K50C/S93T,2.85 / 2.97 / 2.04,0/9
D25I/G49P/Q96M,4.59 / ND / ND,2/9 (3.26)
D91L/Q96A/V97F,2.30 / 2.75 / 2.65,1/9 (3.91)
N33T/V97W,3.23 / ND / ND,1/9 (3.98)
N51H/D91P/V97R,4.09 / ND / ND,2/9 (3.86)
R28T/N33F/N52P,3.60 / ND / 4.23,3/9 (4.98)
L27V/K50Q/R53L,4.66 / ND / 4.84,2/9 (4.58)
L27D/G49W/G94S,3.97 / ND / ND,2/9 (3.94)
Y30R/Y31K/D91R,3.39 / 2.28 / 2.76,0/9
G24W/N51H/S88W,4.24 / ND / 4.30,0/9
Y31G/R90V/F95H,ND / ND / ND,2/9 (2.32)
E23S/S92E,2.09 / 1.84 / 1.59,1/9 (3.34)
N51V/S55V/V97I,3.77 / ND / 3.33,6/9 (3.92)
N51D/R90K/S92A,2.46 / 2.25 / 2.26,3/9 (3.43)

The opening 4 entries, copied out:

| changes | log10 Kd, replicates | control signals |
|---|---|---|
| K50P/Q96Y | 2.55 / 2.43 / 2.15 | 4/9 (3.75) |
| S55I/D91G/V97S | 4.41 / 4.51 / ND | 2/9 (5.04) |
| S88E/F98A | 3.48 / ND / 4.83 | 3/9 (4.26) |
| Y31N/A32S/G49S | 3.53 / 3.13 / 3.00 | 2/9 (4.13) |

In this assay the parent's reference entry averaged 2.31; its copy inside this library read 2.25. Three control strains display no target. For library AAYL52, 28% of the pairings with them gave a signal, with a median of 3.91 and one signal in twenty below 2.90, so weak values seen in few replicates may be background. Also given: how often the same scFv was detected with the empty control strains, with their mean in brackets.